# Source: PubChem BioAssay AID927 (National Center for Advancing Translational Sciences (NCATS), 2007)
# Protein sequences, listed by entry. Tags and fused reporters are not part of them.
# UniProt O75604, whole entry: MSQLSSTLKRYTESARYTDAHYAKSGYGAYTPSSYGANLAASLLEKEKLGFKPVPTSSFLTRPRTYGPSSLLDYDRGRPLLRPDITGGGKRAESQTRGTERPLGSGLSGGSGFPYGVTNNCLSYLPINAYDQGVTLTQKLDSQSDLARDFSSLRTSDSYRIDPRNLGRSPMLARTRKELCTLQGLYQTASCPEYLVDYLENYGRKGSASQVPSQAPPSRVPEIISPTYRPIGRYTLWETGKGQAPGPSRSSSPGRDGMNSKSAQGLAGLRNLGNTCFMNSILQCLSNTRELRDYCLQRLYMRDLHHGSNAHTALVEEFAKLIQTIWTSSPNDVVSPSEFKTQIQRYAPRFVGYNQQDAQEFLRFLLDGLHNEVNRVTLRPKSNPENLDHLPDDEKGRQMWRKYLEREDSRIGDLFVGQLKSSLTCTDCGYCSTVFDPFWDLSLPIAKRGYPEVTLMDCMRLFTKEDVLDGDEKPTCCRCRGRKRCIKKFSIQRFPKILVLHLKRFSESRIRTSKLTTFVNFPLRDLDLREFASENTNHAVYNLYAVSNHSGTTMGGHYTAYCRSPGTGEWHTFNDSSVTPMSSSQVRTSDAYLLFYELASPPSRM
# This is a selection; strong and weak results do not stand in their true shares. Some tests of the compounds listed are not included; inactive here does not mean inactive elsewhere. Calls of active or inactive are those of the source. The call rests on the fitted dose curve; in most records, active means well fitted inhibition curve with a large enough effect; inconclusive means small, poorly fitted or top-dose-only effect; inactive means no such curve, though single readings can be large or run the other way.
# Molecular target: Ubiquitin carboxyl-terminal hydrolase 2 (Homo sapiens) (UniProt O75604)
# Assay: qHTS Assay for Inhibitors of Ubiquitin-specific Protease USP2a;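 further: plate controls were DMSO for no effect and NEM full inhibition control for full effect; nearly all actives have a fitted effect of over 60% in size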
# Conditions: USP2a enzymatic assay; at 38.3 µM (top of the series)
# Source text: NIH Molecular Libraries Screening Centers Network [MLSCN]
# NIH Chemical Genomics Center [NCGC]
# PI Name: Nicholson, Ben. Progenra Inc, Malvern, PA
# Homeostasis of cellular proteins is maintained through a combination of synthesis and degradation. The pathway that accounts for the majority of protein degradation is the ubiquitin-proteasomal pathway. Ubiquitin (Ub) is highly conserved in all cells and the generation of a multi-Ub chain typically targets proteins for degradation by the proteasome. However, ubiquitination is highly reversible and dynamic. Deubiquitination, the reverse process, is catalyzed through the action of enzymes referred to as isopeptidases or deubiquitinating enzymes (DUBs). […]
# The reporter enzyme chosen is phospholipase A2 (PLA2), which has an absolute requirement for a free amino terminus. […] Thus, this coupled assay gives a fluorescent read-out, which is generated through the cleavage of the PLA2 reporter enzyme. […]
# The assay buffer, prepared fresh at the day of the assay, contains 20mM Tris-HCl pH 8.0, 2mM CaCl2, 2mM beta-Mercaptoethanol, 0.1% DMSO. […] Plates were read immediately (0 Hour) on an Envision (Perkin Elmer) plate reader using the following wavelengths Ex 460nm /Em 535nm. Then, the assay plates were incubated for 2.5 hours and read again on the Envision using the same settings […]
row,Compound,"activity change, negative = inhibition"
1,O=C(OC1CN2CCC1CC2)C(CO)(c1ccccc1)c1ccccc1 (configuration not stated),inactive: 17.2%
2,CN(C)c1cccc(C(=O)NCC2(N(C)C)CCCCC2)c1,inactive: -8.64%
